Molecular target: T1, Histamine H2 -Receptor (Cavia porcellus, UniProt P47747)
T1 construct: from tissue; host or cells: isolated right atrium of male Hartley guinea pig
Assay: biochemical
Design: species or system male Hartley guinea pig
Procedure: A male Hartley guinea pig having a body weight of about 400 g was killed by cervical dislocation, and the atrium thereof was isolated and was suspended in an organ bath containing […] of a modified Ringer solution and subjected to a tension of 1 g. The number of heart beats under such condition was recorded using a polygraph.
Initially, from 1×10^-7 mol to 3×10^-4 mol of histamine was allowed to act accumulatively to depict the curve of the dosage-reaction relationship. Likewise, the curve of the dosage of histamine-reaction relationship was depicted in the presence of 5×10^-7 mol to 1×10^-6 mol of the test sample which was injected 3 minutes before. The negative logarithm (pA2) of the molar concentration of the test sample required for moving the curve obtained by single administration of histamine parallel to the right side by a two-times concentration was calculated.

By UniProt entry, the sequences of proteins in these tests, tags left out.
UniProt P47747, whole entry: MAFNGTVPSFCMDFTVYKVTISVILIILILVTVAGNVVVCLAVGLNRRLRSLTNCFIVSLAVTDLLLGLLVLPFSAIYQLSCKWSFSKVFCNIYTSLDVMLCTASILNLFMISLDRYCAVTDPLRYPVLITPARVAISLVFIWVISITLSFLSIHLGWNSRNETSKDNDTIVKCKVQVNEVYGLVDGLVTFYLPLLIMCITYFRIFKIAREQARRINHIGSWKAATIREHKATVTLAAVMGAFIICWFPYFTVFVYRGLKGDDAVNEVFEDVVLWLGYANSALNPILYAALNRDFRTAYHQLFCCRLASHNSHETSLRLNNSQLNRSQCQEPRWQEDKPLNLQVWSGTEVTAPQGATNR

In the case of CN/C(=N/CCSCc1nc[nH]c1C)NC#N [Cimetidine, reference compound], the Kb is reported as 550 nM.
